Experimental data reported in ChEMBL document CHEMBL2434907, “Synthesis and SAR studies of benzimidazolone derivatives as histamine H3-receptor antagonists” (Bioorg Med Chem Lett, 2013).

Chains of the proteins cited; added tags and fusions are not shown. Lines headed by an entry give the natural chain unless they say otherwise; changes in a name come on top.
UniProt Q9JI35: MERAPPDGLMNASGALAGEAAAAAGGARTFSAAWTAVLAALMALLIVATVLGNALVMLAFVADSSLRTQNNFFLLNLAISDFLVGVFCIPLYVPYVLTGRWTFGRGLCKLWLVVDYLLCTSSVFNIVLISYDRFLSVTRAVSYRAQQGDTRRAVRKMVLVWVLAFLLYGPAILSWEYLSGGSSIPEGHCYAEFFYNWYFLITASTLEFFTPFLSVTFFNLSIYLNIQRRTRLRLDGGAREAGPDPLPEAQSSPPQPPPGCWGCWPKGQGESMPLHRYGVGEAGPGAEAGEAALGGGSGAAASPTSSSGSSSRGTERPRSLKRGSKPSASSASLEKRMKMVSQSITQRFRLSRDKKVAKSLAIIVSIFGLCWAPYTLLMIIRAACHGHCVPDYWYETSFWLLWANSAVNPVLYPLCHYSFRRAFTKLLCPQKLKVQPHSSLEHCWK

Target: Histamine H3 receptor (Cavia porcellus, UniProt Q9JI35)
Test: Displacement of [3H]-N-alpha-methyl histamine from histamine H3 receptor in guinea pig brain homogenates
Type: tissue-based

| Ki [nM] | SMILES |
| --- | --- |
| 4 | Nc1cc(CN2CCC(C(=O)N3CCC(n4c(=O)n(-c5ncccn5)c5cc(F)ccc54)CC3)CC2)ccn1 |
| 1.5 | COCCn1c(=O)n(C2CCN(C(=O)C3CCN(Cc4ccnc(N)c4)CC3)CC2)c2ccccc21 |
| 1.5 | Nc1cc(CN2CCC(C(=O)N3CCC(n4c(=O)n(CC(F)(F)F)c5cc(F)ccc54)CC3)CC2)ccn1 |
| 2.8 | Nc1cc(CN2CCC(C(=O)N3CCC(n4c(=O)n(-c5ccc(F)c(F)c5)c5cc(F)ccc54)CC3)CC2)ccn1 |
